# Source: PubChem BioAssay AID463230 (The Scripps Research Institute Molecular Screening Center, 2010)
# Chains of the proteins cited; added tags and fusions are not shown. Lines headed by an entry give the natural chain unless they say otherwise; changes in a name come on top.
# UniProt Q13093: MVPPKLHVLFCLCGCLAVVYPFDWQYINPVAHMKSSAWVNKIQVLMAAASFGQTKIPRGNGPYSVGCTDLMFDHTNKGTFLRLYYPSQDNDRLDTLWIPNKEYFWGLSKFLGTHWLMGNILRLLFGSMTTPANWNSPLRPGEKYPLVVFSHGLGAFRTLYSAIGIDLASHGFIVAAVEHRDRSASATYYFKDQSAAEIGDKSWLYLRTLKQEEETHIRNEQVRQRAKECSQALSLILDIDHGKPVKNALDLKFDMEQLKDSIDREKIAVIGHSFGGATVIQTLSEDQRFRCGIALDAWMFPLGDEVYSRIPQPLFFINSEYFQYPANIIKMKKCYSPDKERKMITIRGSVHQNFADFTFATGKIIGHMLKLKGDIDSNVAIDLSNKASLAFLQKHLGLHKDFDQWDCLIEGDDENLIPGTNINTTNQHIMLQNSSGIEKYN
# The list shows a part of the results, in another mix than the full data. Activity calls are given as the source filed them.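 Rule for the calls: active = mean inhibition of the triplicate above the hit cutoff set for the earlier primary screen (cut at about 25% in these data); inactive = the rest.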
# Target: Platelet-activating factor acetylhydrolase (Homo sapiens) (UniProt Q13093)
# Experiment: inhibition of plasma PAF acetylhydrolase – biochemical, fluorescence polarization, human, confirmation (AID 463230);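 note: 0% = enzyme with DMSO and 100% = wells lacking pPAFAH enzyme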
# Details: recombinant pPAFAH, FP-Rh probe fluorescence polarization; at 3.39 µM; hits give high values
row,SMILES,inhibition
1,Nc1cccc2c([As](=O)(O)O)cccc12,inactive: 7.06%
